Reference: ChEMBL document CHEMBL1131355 (Bioorg Med Chem Lett, 1998)

Chains of the proteins cited; added tags and fusions are not shown.
UniProt P14842, whole entry: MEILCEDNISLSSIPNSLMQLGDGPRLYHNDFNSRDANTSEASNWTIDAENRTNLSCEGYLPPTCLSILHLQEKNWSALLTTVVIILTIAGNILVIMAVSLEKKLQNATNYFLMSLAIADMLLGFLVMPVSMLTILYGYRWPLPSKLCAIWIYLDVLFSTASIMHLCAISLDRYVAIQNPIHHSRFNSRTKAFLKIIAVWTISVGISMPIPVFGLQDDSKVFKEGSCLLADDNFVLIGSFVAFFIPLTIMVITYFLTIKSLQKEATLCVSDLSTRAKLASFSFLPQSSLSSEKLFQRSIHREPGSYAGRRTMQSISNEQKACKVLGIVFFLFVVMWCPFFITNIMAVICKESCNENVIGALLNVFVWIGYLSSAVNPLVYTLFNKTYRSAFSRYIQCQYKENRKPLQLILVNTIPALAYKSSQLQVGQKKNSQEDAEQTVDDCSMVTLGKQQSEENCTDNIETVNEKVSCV

Molecular target: 5-hydroxytryptamine receptor 2A (Rattus norvegicus, UniProt P14842)
Test: biochemical
Type: tissue-based, Frontal cortex, Membrane

SMILES	Ki
CCN(CC)CC1CC(=O)c2c([nH]c3ccccc23)C1 (stereo not drawn)	> 10 µM
O=C1CC(CN2CCOCC2)Cc2[nH]c3ccccc3c21 (stereo not drawn)	> 10 µM
CCN(CC)CC1CC(=O)c2c(n(C)c3ccccc23)C1 (stereo not drawn)	> 10 µM
